Data published in patent US20100160359A1, “Modulators of Metabolism and the Treatment of Disorders Related Thereto” (ARENA PHARMACEUTICALS, INC., priority 2005, published 2010).

Legend:
RUP3 receptor [1] = target: T1, RUP3 receptor (Canis lupus familiaris, UniProt A0A8I3QZL6); experiment: RUP3 dose response in melanophores (dog); assay type: cell-based
T1 sequence (A0A8I3QZL6 1-335): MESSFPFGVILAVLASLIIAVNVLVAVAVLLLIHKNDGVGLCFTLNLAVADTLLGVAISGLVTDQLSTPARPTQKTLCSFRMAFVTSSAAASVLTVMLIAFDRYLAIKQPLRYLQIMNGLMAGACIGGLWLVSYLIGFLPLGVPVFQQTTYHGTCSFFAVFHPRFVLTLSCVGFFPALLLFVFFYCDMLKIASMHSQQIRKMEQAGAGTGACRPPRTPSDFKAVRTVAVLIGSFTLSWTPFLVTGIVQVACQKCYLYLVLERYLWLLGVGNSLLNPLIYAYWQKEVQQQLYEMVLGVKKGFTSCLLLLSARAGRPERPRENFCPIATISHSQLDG

RUP3 receptor [2] = target: T2, RUP3 receptor (Macaca fascicularis, UniProt G7Q3P2); experiment: RUP3 dose response in melanophores (cynomolgus monkey); assay type: cell-based; conditions: read-out: EC50, RUP3 receptor agonist (cynomolgus monkey)
T2 sequence (G7Q3P2 1-335): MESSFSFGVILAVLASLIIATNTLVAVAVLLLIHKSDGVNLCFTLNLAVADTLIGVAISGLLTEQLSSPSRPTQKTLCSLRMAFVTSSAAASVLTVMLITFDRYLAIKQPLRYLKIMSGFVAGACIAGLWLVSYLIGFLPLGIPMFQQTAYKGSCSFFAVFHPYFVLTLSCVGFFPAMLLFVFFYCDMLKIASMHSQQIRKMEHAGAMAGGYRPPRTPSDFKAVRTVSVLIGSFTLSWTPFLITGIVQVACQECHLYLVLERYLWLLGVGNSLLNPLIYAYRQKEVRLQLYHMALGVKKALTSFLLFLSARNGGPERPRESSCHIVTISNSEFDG

## Cc1ncccc1Oc1ncnc(OC2CCN(C(=O)OC(C)C)CC2)c1C [4-[5-methyl-6-(2-methyl-pyridin-3-yloxy)-pyrimidin-4-yloxy]-piperidine-1-carboxylic acid isopropyl ester]
RUP3 receptor [1]
  EC50: 1 nM
RUP3 receptor [2]
  EC50: 35 nM
